{"source": "paper PMC7476584", "about": "“Lipophilicity trends upon fluorination of isopropyl, cyclopropyl and 3-oxetanyl groups” (Beilstein Journal of Organic Chemistry, 2020)", "origin": "cited, not measured here", "conditions": "reference compound in the 19F NMR method; ref not specified; cited from earlier work"}
{"substance": "2-fluoroethan-1-ol", "values": [{"measurement": "logP of reference compound (known value)", "value": -0.75}]}
